Assay results published in ChEMBL document CHEMBL1143946, “Docking analyses on human muscarinic receptors: unveiling the subtypes peculiarities in agonists binding” (Bioorg Med Chem, 2008).

By UniProt entry, the sequences of proteins in these tests, tags left out. Where a name states a change or a piece, a line headed by the entry shows the natural chain unless it says otherwise.
UniProt P11229: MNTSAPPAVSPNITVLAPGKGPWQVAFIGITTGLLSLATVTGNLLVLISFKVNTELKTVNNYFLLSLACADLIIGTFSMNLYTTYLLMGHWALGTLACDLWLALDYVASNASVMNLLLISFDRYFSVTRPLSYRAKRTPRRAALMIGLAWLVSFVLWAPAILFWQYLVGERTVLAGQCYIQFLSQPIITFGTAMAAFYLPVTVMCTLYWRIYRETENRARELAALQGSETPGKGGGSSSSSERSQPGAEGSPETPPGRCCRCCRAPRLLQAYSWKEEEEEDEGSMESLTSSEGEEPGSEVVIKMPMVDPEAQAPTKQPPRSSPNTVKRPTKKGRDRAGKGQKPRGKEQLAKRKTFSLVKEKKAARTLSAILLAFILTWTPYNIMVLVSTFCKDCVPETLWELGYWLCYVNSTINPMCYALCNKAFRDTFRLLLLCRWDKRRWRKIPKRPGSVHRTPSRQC

Biological target: Muscarinic acetylcholine receptor M1 (Homo sapiens, UniProt P11229)
Test: biochemical

**Q.** How did the Ki turn out when `C[C@H]1COC[C@@H](C[N+](C)(C)C)O1` was run?
**A.** The Ki was 8.32 µM.
